We go through one compound from US10611765B2, “Pyrrolopyrimidine derivatives as Mps1/TTK kinase inhibitors” (Ohio State Innovation Foundation, priority 2014, dated 2020).

By UniProt entry, the sequences of proteins in these tests, tags left out.
UniProt Q05397, whole entry: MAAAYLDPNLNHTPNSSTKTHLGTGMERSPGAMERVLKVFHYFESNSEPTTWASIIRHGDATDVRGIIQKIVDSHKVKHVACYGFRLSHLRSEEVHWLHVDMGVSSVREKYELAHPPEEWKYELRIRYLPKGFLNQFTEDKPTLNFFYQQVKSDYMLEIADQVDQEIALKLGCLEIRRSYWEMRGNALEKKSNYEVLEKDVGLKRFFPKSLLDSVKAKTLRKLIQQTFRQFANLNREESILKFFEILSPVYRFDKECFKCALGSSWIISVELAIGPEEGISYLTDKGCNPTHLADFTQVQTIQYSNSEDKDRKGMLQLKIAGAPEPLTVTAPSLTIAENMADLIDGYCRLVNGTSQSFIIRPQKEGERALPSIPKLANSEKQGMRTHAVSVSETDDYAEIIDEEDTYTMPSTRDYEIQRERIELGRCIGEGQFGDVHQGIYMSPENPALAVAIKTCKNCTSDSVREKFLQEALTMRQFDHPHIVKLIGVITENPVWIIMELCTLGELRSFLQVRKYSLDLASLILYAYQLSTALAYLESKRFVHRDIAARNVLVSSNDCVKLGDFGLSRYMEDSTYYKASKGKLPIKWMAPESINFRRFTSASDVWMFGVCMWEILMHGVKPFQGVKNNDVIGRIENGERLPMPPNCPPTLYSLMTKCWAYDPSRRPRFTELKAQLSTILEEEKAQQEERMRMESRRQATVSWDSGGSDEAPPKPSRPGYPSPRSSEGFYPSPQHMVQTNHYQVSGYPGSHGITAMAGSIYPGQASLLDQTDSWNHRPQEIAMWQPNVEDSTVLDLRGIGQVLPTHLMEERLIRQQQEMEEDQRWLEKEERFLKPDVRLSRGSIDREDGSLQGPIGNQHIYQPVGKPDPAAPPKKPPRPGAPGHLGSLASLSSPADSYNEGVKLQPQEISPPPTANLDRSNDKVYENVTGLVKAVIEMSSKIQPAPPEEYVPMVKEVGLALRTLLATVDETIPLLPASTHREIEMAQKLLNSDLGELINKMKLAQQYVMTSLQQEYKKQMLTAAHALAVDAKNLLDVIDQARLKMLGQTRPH

The experiment deals with FAK/PTK2 (Homo sapiens, UniProt Q05397). Particulars: read-out: IC50 FAK/PTK2; kinase profiling.

SMILES strings stand for the structures.

Consider `COc1cc(N2CCOCC2)ccc1Nc1nc(NC2CCCCC2)c2cc[nH]c2n1` [Compound 13, N4-cyclohexyl-N2-(2-methoxy-4-morpholinophenyl)-7H-pyrrolo[2,3-d]pyrimidine-2,4-diamine], for which the IC50 worked out at 890 nM.
